Reference: patent US7888386B2, “3-(phenoxyphenylmethyl)pyrrolidine compounds” (Theravance, Inc., priority 2008, dated 2011)

Protein sequences, listed by entry. Tags and fused reporters are not part of them.
UniProt P31645, whole entry: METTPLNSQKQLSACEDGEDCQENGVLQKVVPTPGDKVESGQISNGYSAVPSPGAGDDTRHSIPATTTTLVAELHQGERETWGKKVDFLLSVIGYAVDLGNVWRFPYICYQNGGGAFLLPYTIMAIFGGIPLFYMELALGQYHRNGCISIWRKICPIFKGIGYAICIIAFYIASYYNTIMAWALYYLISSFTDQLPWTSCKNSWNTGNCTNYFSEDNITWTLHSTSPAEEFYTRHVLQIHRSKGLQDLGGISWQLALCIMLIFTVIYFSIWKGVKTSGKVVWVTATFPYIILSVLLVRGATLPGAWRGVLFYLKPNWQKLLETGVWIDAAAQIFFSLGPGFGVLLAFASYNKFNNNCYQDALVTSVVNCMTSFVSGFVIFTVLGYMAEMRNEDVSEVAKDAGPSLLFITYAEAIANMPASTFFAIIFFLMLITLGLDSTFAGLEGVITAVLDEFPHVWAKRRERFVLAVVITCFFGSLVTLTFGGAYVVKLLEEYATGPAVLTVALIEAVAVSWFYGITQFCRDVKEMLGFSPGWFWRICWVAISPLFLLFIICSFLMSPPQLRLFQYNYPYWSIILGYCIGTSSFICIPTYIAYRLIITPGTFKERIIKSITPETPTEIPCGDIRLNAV
UniProt P23975, whole entry: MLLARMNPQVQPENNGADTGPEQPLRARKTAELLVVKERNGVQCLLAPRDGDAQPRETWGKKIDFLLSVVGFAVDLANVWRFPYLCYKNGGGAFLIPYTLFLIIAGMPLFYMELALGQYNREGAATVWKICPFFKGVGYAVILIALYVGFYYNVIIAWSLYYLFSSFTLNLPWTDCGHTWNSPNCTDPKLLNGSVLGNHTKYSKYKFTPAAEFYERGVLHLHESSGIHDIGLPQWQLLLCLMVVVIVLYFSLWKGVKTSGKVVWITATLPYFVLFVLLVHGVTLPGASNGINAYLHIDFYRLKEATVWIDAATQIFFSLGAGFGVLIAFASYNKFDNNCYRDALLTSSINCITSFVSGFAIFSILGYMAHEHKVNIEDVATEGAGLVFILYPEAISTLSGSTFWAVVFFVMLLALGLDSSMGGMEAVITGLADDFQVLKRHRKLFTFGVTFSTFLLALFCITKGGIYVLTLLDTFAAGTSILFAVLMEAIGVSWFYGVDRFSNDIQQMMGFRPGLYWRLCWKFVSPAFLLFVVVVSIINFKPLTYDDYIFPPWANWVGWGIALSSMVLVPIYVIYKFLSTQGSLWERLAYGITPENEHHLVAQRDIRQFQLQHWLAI

Tests used:
hSERT = hSERT (Homo sapiens, UniProt P31645)
hNET = hNET (Homo sapiens, UniProt P23975)
[1] = ratio of binding Ki at hSERT to Ki at hNET, rounded off to the nearest tenth
[2] = membranes of HEK-293 cells expressing hNET, 1.0 nM 3H-nisoxetine
[3] = ratio of SERT Ki to NET Ki from binding assays
[4] = ratio of SERT Ki to NET Ki (binding)

| Compound | SERT Ki/NET Ki (hSERT; [3]) | NET pKi (hNET; hNET binding assay) | SERT Ki/NET Ki (hSERT; [4]) | NET pKi (hNET; hNET binding) | also measured |
| --- | --- | --- | --- | --- | --- |
| COc1ccccc1O[C@@H](c1cccc(C#N)c1)[C@H]1CCNC1 | – | – | – | – | SERT Ki/NET Ki (hSERT; [1]): 100; NET pKi (hNET; [2]): 9.1 |
| Cc1cc(F)cc([C@H](Oc2c(Cl)cccc2Cl)[C@H]2CCNC2)c1 (relative stereo) | 1 | 8.9 | – | – | – |
| Fc1cc(F)cc([C@@H](Oc2c(Cl)cccc2Cl)[C@H]2CCNC2)c1 (relative stereo) | 1 | 8.2 | – | – | – |
| COc1c(F)cc(F)cc1O[C@@H](c1ccccc1)[C@H]1CCNC1 | – | – | 5 | 8.3 | – |
| Fc1c(Cl)ccc(Cl)c1O[C@@H](c1ccccc1)[C@H]1CCNC1 | – | – | 3.2 | 9.5 | – |
| Fc1c(Cl)ccc(Cl)c1O[C@H](c1ccccc1)[C@@H]1CCNC1 | – | – | 0.5 | 9.3 | – |
| Cc1cccc(C(Oc2c(Cl)cccc2Cl)C2CCNC2)c1 (centres unmarked) | 2 | 8.3 | – | – | – |
| Fc1cc(Cl)cc([C@H](Oc2c(Cl)cccc2Cl)[C@H]2CCNC2)c1 (relative stereo) | 3.2 | 9.2 | – | – | – |
| Fc1cc(Cl)cc(O[C@@H](c2ccccc2)[C@H]2CCNC2)c1Cl | – | – | 0.5 | 8.1 | – |
| NC(=O)c1ccc(C(Oc2c(Cl)cccc2Cl)C2CCNC2)cc1 (centres unmarked) | 1.3 | 8.1 | – | – | – |
| Cc1ccc(Cl)cc1O[C@@H](c1ccccc1)[C@H]1CCNC1 | 0.3 | – | – | – | – |
| Clc1ccccc1C(Oc1c(Cl)ccc(Cl)c1Cl)C1CCNC1 (centres unmarked) | – | – | 0.2 | 8.8 | – |
| Fc1cc(F)cc([C@H](Oc2c(F)cccc2Cl)[C@H]2CCNC2)c1 | 50 | 9.8 | – | – | – |
| N#Cc1ccc([C@H](Oc2c(Cl)cccc2Cl)[C@H]2CCNC2)cc1 | 1 | 8.8 | – | – | – |
| COc1ccccc1O[C@@H](c1ccc(C#N)cc1)[C@H]1CCNC1 | – | – | – | – | SERT Ki/NET Ki (hSERT; [1]): 5; NET pKi (hNET; [2]): 8.6 |
| COc1cccc(F)c1O[C@H](c1cc(F)cc(F)c1)[C@@H]1CCNC1 | 1.6 | 8.7 | – | – | – |
| Fc1cc(F)cc([C@@H](Oc2c(Cl)cccc2Cl)[C@@H]2CCNC2)c1 | 2.5 | 8.9 | – | – | – |
| Fc1ccc(Cl)c(O[C@@H](c2ccccc2)[C@H]2CCNC2)c1 | 32 | 9 | – | – | – |
| Fc1cc(F)cc([C@@H](Oc2c(Cl)ccc(Cl)c2Cl)[C@@H]2CCNC2)c1 | – | – | 0.3 | 9.2 | – |
| Clc1ccc([C@H](Oc2c(Cl)cccc2Cl)[C@H]2CCNC2)cc1 (relative stereo) | 1.6 | 8.7 | – | – | – |
| Cc1cc(F)cc([C@@H](Oc2c(Cl)cccc2Cl)[C@H]2CCNC2)c1 (relative stereo) | 1.6 | – | – | – | – |
| Clc1cccc([C@H](Oc2c(Cl)cccc2Cl)[C@H]2CCNC2)c1 (relative stereo) | 1.3 | 8.2 | – | – | – |
| COc1ccc(Cl)c(O[C@@H](c2ccccc2)[C@H]2CCNC2)c1F | – | – | 5 | 9 | – |

Where two headings read alike, the source gives them in different places.
